From ChEMBL document CHEMBL1137660, “Molecular and biochemical characterization of the chromosome-encoded class A beta-lactamase BCL-1 from Bacillus clausii” (Antimicrob Agents Chemother, 2007)

Columns and labels:
[1] = substrate: C[C@@H](O)[C@H]1C(=O)N2C(C(=O)O)=C(SCCNC=N)C[C@H]12; conditions: Shouchella clausii; NR
[2] = substrate: C[C@@H](O)[C@H]1C(=O)N2C(C(=O)O)=C(SCCNC=N)C[C@H]12; conditions: Shouchella clausii; NR; remark: listed apart in the source

B1: Beta-lactamase (Bacillus clausii), A8RR46 (protein)
chain: MKRSFFMLKTKITSSILVGACLLIGCSNGNEQPVSNEPEPEESVETGEAVFKALEEEYAARLGVFALDTGTGQTVSYRSDERFTYASAHKPLAVAVLLQQKSIEELEQLITYSADDLVNYNPITENHVETGMTLRELSDASIRYSDNTAANFIFDEIGGPEGFKEGLRAIGDTVTEPERIEPELNHVEPGEIQDTSTPEALAKSLQEFALGEALPADKQELLIDWLIGNTTGDALIRAGVPEGWEVGDKTGAGSYGTRNDIAILWPPEKEPIILAVLSSKDEKDAEYDDELIAKATEEVINLLAQTE
[1]
  kcat/Km: 100000 M⁻¹ s⁻¹
[2]
  Km: 35 µM
  kcat: 0.06 s⁻¹
